The values that follow come from PMC10440361 (Current Research in Pharmacology and Drug Discovery, 2023).

Data set [1] has as its system adult male cynomolgus monkeys. Nature of the data set: Tolerability in monkeys after single-dose bolus. In kind it is in vivo. The conditions noted are these: non-human primates (cynomolgus monkeys), telemetry.
Data set [2] deals with adult male Sprague Dawley rats. Nature of the data set: Safety/tolerability after SC administration in conscious rats. Type of data set: in vivo.

With “[Phe2,Dab(Lys(Lys(Ac)-[Ala6,Glu9]))8]VT [OCE-205]”, in data set [1], the “effect on body temperature” value is given as “no apparent OCE-205–related effect”. In addition, in data set [2] (SC 0.1 to 20 mg/kg), the deaths result is “no deaths occurred”. For the same substance, the “local reaction at the injection site (redness, skin irritation, erythema, or scab), animals affected” value in data set [2] (SC, dose levels of 4 and 20 mg/kg, six males) is on record as “three of the six”. Further, the bodyweight gain entry in data set [2] (four SC treatments with different dose levels up to 20 mg/kg) is on record as “did not influence bodyweight gain”.
